## CycPeptMPDB entries from one study

PAMPA is the parallel artificial membrane permeability assay, which has no cells and reads passive diffusion. P is given in units of 10^-6 cm/s (from log10 values with two decimals); larger means faster passage.

CC(C)C[C@@H]1C(=O)N[C@H](CC(C)C)C(=O)N2CCC[C@@H]2C(=O)N[C@H](CC(C)C)C(=O)N[C@@H](Cc2ccccc2)C(=O)N2CCC[C@H]2C(=O)N(C)[C@@H](C)C(=O)N1C has PAMPA 1.7 × 10^-6 cm/s. The entry for CC(C)C[C@@H]1C(=O)N[C@@H](Cc2ccccc2)C(=O)N2CCC[C@@H]2C(=O)N[C@@H](Cc2ccccc2)CC(=O)N(C)[C@@H](CC(C)C)C(=O)N(Cc2ccccc2)CC(=O)N2CCC[C@@H]2C(=O)N1C lists PAMPA 3.7 × 10^-6 cm/s. CC(C)C[C@@H]1NC(=O)[C@@H]2CCCN2C(=O)[C@H](CC(C)C)NC(=O)[C@H](CC(C)C)N(C)C(=O)[C@H](C)N(C)C(=O)[C@H]2CCCN2C(=O)[C@H](Cc2ccccc2)NC1=O is reported with PAMPA 0.55 × 10^-6 cm/s. Listed for CC(C)C[C@@H]1NC(=O)C[C@H](Cc2ccccc2)NC(=O)[C@H](Cc2ccccc2)NC(=O)[C@@H](CC(C)C)N(C)C(=O)[C@@H]2CCCN2C(=O)[C@@H](CC(C)C)N(C)C1=O: PAMPA 6.5 × 10^-6 cm/s. CC(C)C[C@@H]1NC(=O)[C@@H](C)N(C)C(=O)[C@H]2CCCN2C(=O)[C@H](Cc2ccccc2)NC(=O)CN(Cc2ccccc2)C(=O)[C@@H]2CCCN2C(=O)[C@@H](CC(C)C)NC1=O is reported with PAMPA 2.1 × 10^-6 cm/s. CC(C)C[C@H]1NC(=O)CN(Cc2ccccc2)C(=O)[C@@H](C)N(C)C(=O)[C@@H]2CCCN2C(=O)[C@H](Cc2ccccc2)NC(=O)CN(Cc2ccccc2)C(=O)[C@@H]2CCCN2C1=O is reported with PAMPA 2.1 × 10^-6 cm/s. Listed for CC(C)C[C@@H]1C(=O)N[C@H](CC(C)C)C(=O)N2CCC[C@@H]2C(=O)N[C@H](CC(C)C)C(=O)N[C@@H](Cc2ccccc2)C(=O)N2CCC[C@@H]2C(=O)N[C@@H](Cc2ccccc2)CC(=O)N1C: PAMPA 2.1 × 10^-6 cm/s. CCCN1CC(=O)N[C@H](CC(C)C)C(=O)N[C@@H](CC(C)C)C(=O)N2CCC[C@H]2C(=O)N[C@H](CC(C)C)C(=O)N[C@@H](Cc2ccccc2)C1=O has PAMPA 5.5 × 10^-6 cm/s.

The entry for CC(C)C[C@@H]1C(=O)N2CCC[C@@H]2C(=O)N(C)[C@@H](CC(C)C)C(=O)N[C@@H](Cc2ccccc2)C(=O)N[C@H](C)C(=O)N(C)[C@@H](CC(C)C)C(=O)N1C lists PAMPA 9.5 × 10^-6 cm/s. For CC(C)C[C@@H]1NC(=O)[C@H](C)N(C)C(=O)[C@H]2CCCN2C(=O)[C@H](Cc2ccccc2)NC(=O)CN(Cc2ccccc2)C(=O)[C@@H]2CCCN2C(=O)[C@@H](CC(C)C)NC1=O the data give PAMPA 3.2 × 10^-6 cm/s. CC(C)C[C@@H]1NC(=O)[C@@H](C)N(C)C(=O)[C@@H]2CCCN2C(=O)[C@H](Cc2ccccc2)NC(=O)[C@@H](CC(C)C)N(C)C(=O)[C@H]2CCCN2C(=O)[C@@H](CC(C)C)N(C)C1=O has PAMPA 1 × 10^-6 cm/s. CCCN1CC(=O)N[C@H](CC(C)C)C(=O)N[C@H](CC(C)C)C(=O)N2CCC[C@H]2C(=O)N(C)[C@H](CC(C)C)C(=O)N[C@@H](Cc2ccccc2)C(=O)N2CCC[C@H]2C1=O has PAMPA 3.1 × 10^-6 cm/s. The entry for CCCN1CC(=O)N[C@H](CC(C)C)C(=O)N(C)[C@H](CC(C)C)C(=O)N2CCC[C@@H]2C(=O)N[C@H](CC(C)C)C(=O)N[C@@H](Cc2ccccc2)C(=O)N2CCC[C@@H]2C1=O lists PAMPA 4.6 × 10^-6 cm/s. CC(C)C[C@H]1C(=O)N2CCC[C@H]2C(=O)N(C)[C@@H](CC(C)C)C(=O)N[C@@H](Cc2ccccc2)C(=O)N[C@@H](C)C(=O)N(Cc2ccccc2)CC(=O)N1C has PAMPA 6 × 10^-6 cm/s. The entry for CCCN1CC(=O)N[C@@H](CC(C)C)C(=O)N(C)[C@H](CC(C)C)C(=O)N2CCC[C@@H]2C(=O)N(C)[C@@H](CC(C)C)C(=O)N[C@@H](Cc2ccccc2)C(=O)N2CCC[C@@H]2C1=O lists PAMPA 1.9 × 10^-6 cm/s. CC(C)C[C@@H]1C(=O)N[C@@H](Cc2ccccc2)C(=O)N2CCC[C@@H]2C(=O)N[C@H](C)C(=O)N[C@H](CC(C)C)C(=O)N[C@@H](Cc2ccccc2)CC(=O)N2CCC[C@H]2C(=O)N1C is reported with PAMPA 0.44 × 10^-6 cm/s.

For CC(C)C[C@H]1NC(=O)[C@H](CC(C)C)N(C)C(=O)[C@H](C)N(C)C(=O)[C@H]2CCCN2C(=O)[C@H](Cc2ccccc2)NC(=O)[C@H](CC(C)C)N(C)C(=O)[C@H]2CCCN2C1=O the data give PAMPA 5 × 10^-6 cm/s. Listed for CC(C)C[C@@H]1C(=O)N[C@@H](Cc2ccccc2)C(=O)N[C@H](C)C(=O)N(C)[C@@H](CC(C)C)C(=O)N[C@H](CC(C)C)C(=O)N2CCC[C@H]2C(=O)N1C: PAMPA 6.9 × 10^-6 cm/s. CC(C)C[C@@H]1NC(=O)[C@@H](C)N(C)C(=O)[C@@H]2CCCN2C(=O)[C@H](Cc2ccccc2)NC(=O)[C@@H](CC(C)C)N(C)C(=O)[C@@H]2CCCN2C(=O)[C@@H](CC(C)C)NC1=O has PAMPA 3.7 × 10^-6 cm/s. CC(C)C[C@H]1NC(=O)[C@@H](C)NC(=O)[C@H](Cc2ccccc2)NC(=O)[C@H](CC(C)C)N(C)C(=O)[C@@H]2CCCN2C(=O)C[C@H](Cc2ccccc2)NC1=O is reported with PAMPA 0.65 × 10^-6 cm/s. CC(C)C[C@@H]1NC(=O)[C@H](C)N(C)C(=O)[C@@H]2CCCN2C(=O)[C@H](Cc2ccccc2)NC(=O)[C@H](CC(C)C)N(C)C(=O)[C@@H]2CCCN2C(=O)[C@@H](CC(C)C)N(C)C1=O is reported with PAMPA 5.2 × 10^-6 cm/s. The entry for CC(C)C[C@@H]1NC(=O)C[C@H](Cc2ccccc2)NC(=O)[C@@H]2CCCN2C(=O)[C@H](Cc2ccccc2)NC(=O)[C@@H](CC(C)C)N(C)C(=O)[C@@H]2CCCN2C(=O)[C@@H](CC(C)C)N(C)C1=O lists PAMPA 3.5 × 10^-6 cm/s.

Extract of 3 entries:

| structure (SMILES) | PAMPA (10^-6 cm/s) |
|---|---|
| CC(C)C[C@@H]1C(=O)N[C@H](CC(C)C)C(=O)N2CCC[C@@H]2C(=O)N[C@H](CC(C)C)C(=O)N[C@@H](Cc2ccccc2)C(=O)N2CCC[C@@H]2C(=O)N[C@@H](Cc2ccccc2)CC(=O)N1C | 2.1 |
| CC(C)C[C@@H]1NC(=O)[C@@H](C)N(C)C(=O)[C@H]2CCCN2C(=O)[C@H](Cc2ccccc2)NC(=O)CN(Cc2ccccc2)C(=O)[C@@H]2CCCN2C(=O)[C@@H](CC(C)C)NC1=O | 2.1 |
| CC(C)C[C@@H]1C(=O)N[C@H](CC(C)C)C(=O)N2CCC[C@@H]2C(=O)N[C@H](CC(C)C)C(=O)N[C@@H](Cc2ccccc2)C(=O)N2CCC[C@H]2C(=O)N(C)[C@@H](C)C(=O)N1C | 1.7 |

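Conditions beyond the assay type are not listed; see the original paper. Other peptides of the study may be missing here. Peptides that the database sets to -10, its floor, are left out.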

Data: CycPeptMPDB; original report Townsend et al. 2020, doi:10.26434/chemrxiv.13335941.v1.